BindingDB's records for doi:10.1016/j.str.2004.10.004 (Plexxikon, 2004)
pIC50: −log10 of the molar value. Structures can show the parent of a compound that is named as a salt.

By UniProt entry, the sequences of proteins in these tests, tags left out. Residues count along the entry.
UniProt O00408, 574-941: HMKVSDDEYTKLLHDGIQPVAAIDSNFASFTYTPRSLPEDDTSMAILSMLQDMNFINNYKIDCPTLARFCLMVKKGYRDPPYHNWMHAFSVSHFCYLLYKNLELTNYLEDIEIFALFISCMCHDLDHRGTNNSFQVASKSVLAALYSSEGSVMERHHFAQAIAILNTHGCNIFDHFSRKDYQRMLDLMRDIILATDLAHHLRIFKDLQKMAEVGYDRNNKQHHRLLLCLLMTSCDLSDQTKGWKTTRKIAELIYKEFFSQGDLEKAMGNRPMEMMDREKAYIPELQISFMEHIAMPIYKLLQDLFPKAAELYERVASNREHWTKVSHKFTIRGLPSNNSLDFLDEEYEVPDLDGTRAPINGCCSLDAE
UniProt O76083, 226-593: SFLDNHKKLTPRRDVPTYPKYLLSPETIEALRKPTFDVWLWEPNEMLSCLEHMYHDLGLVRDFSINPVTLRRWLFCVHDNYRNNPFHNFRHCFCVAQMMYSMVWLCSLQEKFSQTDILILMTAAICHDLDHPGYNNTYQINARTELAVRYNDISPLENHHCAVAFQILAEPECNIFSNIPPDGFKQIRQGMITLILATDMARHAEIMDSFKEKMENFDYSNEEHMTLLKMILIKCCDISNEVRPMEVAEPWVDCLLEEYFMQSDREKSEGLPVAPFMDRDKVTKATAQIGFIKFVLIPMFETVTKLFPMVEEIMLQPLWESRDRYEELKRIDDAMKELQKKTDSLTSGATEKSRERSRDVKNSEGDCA

Tests used:
[1] = molecular target: T1, cGMP-dependent 3',5'-cyclic phosphodiesterase [574-941] (Homo sapiens, UniProt O00408); test: Phosphodiesterase (PDE) Inhibition Assay
T1 construct: 574-941

[2] = molecular target: T2, High affinity cGMP-specific 3',5'-cyclic phosphodiesterase 9A [226-593] (Homo sapiens, UniProt O76083)
T2 construct: 226-593

- pIC50 [1]: 4.46
- pIC50 [2]: 5.25
Compound: CCCc1nn(C)c2c(=O)[nH]c(-c3cc(S(=O)(=O)N4CCN(C)CC4)ccc3OCC)nc12 [SILDENAFIL CITRATE]
